Experimental data from paper PMC2662489 (Biochemical Journal, 2009).

Amino acid sequences for entries named in this document (tags omitted). A change or cut given only in a name is not applied to a line headed by its entry.
UniProt P60752: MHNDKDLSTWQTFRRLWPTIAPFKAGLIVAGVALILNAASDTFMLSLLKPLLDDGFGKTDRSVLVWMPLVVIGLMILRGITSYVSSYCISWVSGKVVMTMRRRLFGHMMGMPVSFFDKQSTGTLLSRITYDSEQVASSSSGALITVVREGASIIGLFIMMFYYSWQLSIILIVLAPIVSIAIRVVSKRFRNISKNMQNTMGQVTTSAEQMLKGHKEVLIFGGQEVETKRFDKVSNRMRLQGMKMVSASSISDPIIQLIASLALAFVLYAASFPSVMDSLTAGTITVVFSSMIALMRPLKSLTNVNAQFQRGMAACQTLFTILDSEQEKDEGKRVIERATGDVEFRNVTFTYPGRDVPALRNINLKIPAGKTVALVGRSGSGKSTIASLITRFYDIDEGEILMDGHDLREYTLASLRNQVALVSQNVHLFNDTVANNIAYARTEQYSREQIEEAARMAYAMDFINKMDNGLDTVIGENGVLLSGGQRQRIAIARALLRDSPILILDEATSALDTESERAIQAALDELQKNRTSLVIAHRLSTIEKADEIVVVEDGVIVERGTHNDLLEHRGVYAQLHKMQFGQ

What was measured:
MsbA-MIANS [1] = biological target: T1, MsbA-MIANS (Escherichia coli, UniProt P60752); assay: MIANS fluorescence quenching titration of MsbA-MIANS; type: binding; conditions: MsbA 100 μg/ml in 0.05% DM
MsbA-MIANS [2] = biological target: T1, MsbA-MIANS; assay: Dual sequential titration of MsbA-MIANS fluorescence quenching; type: binding
Outline: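 MIANS-labelled MsbA (100 μg/ml) was prepared by labelling with 10 μM MIANS, quenching with DTE and dialysing. It was held in 100 mM Hepes, 50 mM NaCl, 5 mM MgCl2, 0.05% DM, pH 7.5, at 23 °C, or 10 °C for ATP to prevent hydrolysis. […] Data were fitted to a single-site model for Kd and ΔFmax.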

Substance Lipid A has a Kd (MsbA-MIANS [1]; 10 °C, ligand alone) of 2.44 ± 0.35 µM, a Kd (MsbA-MIANS [1]; 23 °C, single-site fit) of 5.46 ± 1.04 µM and a Kd (MsbA-MIANS [2]; 10 °C, titrated after ATP) of 18.7 ± 3.3 µM. For the same substance, the Kd (MsbA-MIANS [2]; 10 °C, titrated after daunorubicin) was 18.1 ± 3.3 µM, the Kd (MsbA-MIANS [2]; 23 °C, titrated after daunorubicin) was 24.5 ± 4.4 µM and the Kd (MsbA-MIANS [2]; 23 °C, titrated after p[NH]ppA) was 16.4 ± 3.7 µM.
